Test results published in PMC6038798, “Dissecting how modular polyketide synthase ketoreductases interact with acyl carrier protein-attached substrates” (Chemical Communications (Cambridge, England), 2017).
pKd: −log10 of the molar value.

Experiments:
[1] = target: mKRa, A1-type ketoreductase (KR) domain from module 5 of MLSA1 of the mycolactone polyketide synthase (Mycobacterium ulcerans); assay: ITC; ACP species injected into a solution of the KR domain in the presence of excess NADPH; three repeat experiments
[2] = target: mKRa, A1-type ketoreductase (KR) domain from module 5 of MLSA1 of the mycolactone polyketide synthase (Mycobacterium ulcerans); assay: ITC; ACP species titrated against the KR domain in the presence of excess NADP+ (oxidised cofactor); three repeat experiments

Substance | pKd [1] | stoichiometry N [1] | pKd [2]
holo mACPa (1a) (domain or fragment) | 6.11 | 1 | 
apo mACPa, acyl carrier protein domain cognate to mKRa (module 5 of MLSA1), apo form (domain or fragment) | 5.60 | 1 | 
β-Hydroxybutyryl-mACPa (1c) (domain or fragment) | 6.54 |  | 
holo mACPb (1a) (domain or fragment) | 6.13 |  | 
apo mACPb, acyl carrier protein domain cognate to mKRb (module 7 of MLSB), apo form (domain or fragment) | 5.74 |  | 
Acetoacetyl-mACPa (1b) (domain or fragment) |  |  | 6.37
